For assay [1], the target named is T1, ERK5 (Homo sapiens, UniProt Q13164). As to the kind of experiment: biochemical.
Assay [2] deals with T1, ERK5.

Amino acid sequences for entries named in this document (tags omitted). Residues count along the entry.
UniProt Q13164, 55-347 limits assumed: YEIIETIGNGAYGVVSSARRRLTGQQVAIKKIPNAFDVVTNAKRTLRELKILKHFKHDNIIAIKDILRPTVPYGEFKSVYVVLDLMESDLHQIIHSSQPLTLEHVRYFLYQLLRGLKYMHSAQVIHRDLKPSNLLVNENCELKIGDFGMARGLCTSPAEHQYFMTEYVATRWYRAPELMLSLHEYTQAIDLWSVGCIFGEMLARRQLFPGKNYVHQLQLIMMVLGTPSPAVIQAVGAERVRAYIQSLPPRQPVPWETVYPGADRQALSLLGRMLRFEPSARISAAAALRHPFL

Read-outs that look alike come from different tables or passages of the source.

In general, IC50 refers to the concentration that gives 50% inhibition. Take `Nc1cc(OC(F)(F)F)ccc1C(=O)N1CCC(c2c(F)cnc3[nH]c(C4CCOCC4)nc23)CC1` [Example 173, [2-amino-4-(trifluoromethoxy)phenyl]-[4-(6-fluoro-2-tetrahydropyran-4-yl-3H-imidazo[4,5-b]pyridin-7-yl)-1-piperidyl]methanone]: the half-maximal inhibitory concentration (IC50) is 8 nM at ERK5 [1] and 6 nM against ERK5 [2].

On to `COC(C)(C)c1nc2c(C3CCN(C(=O)c4ccc(OC(F)(F)F)cc4N)CC3)c(F)cnc2[nH]1` [Example 447, [2-amino-4-(trifluoromethoxy)phenyl]-[4-[6-fluoro-2-(1-methoxy-1-methyl-ethyl)-3H-imidazo[4,5-b]pyridin-7-yl]-1-piperidyl]methanone], for which the IC50 against ERK5 [1] turned out to be 82 nM; against ERK5 [2], 9 nM.

Values taken from patent US20260022116A1, “IMIDAZOPYRIDINE COMPOUNDS, PREPARATION THEREOF AND THERAPEUTIC USES THEREOF” (SANOFI, priority 2022, published 2026).
